Assay results taken from publication PMC12519566, “A TOM1 variant impairs interaction with TOLLIP, autophagosome-lysosome fusion and regulation of innate immunity” (Disease Models & Mechanisms, 2025).

Experiments:
[1] = molecular target: TOLLIP (toll-interacting protein) (human) (UniProt Q9H0E2); assay: cross-linking; glutaraldehyde dilution series (0.01-1%), 5 min at 37°C; SDS-PAGE
[2] = molecular target: TOLLIP (toll-interacting protein) (human) (UniProt Q9H0E2); assay: cross-linking; proteins treated with the homobifunctional crosslinkers BS3 and glutaraldehyde

stoichiometry N [1]: 2
stoichiometry N [2]: 2
Substance: TOLLIP (toll-interacting protein) (from UniProt Q9H0E2 1-274) (natural protein)
